This is a selection: effects in other tests are not listed, and their absence says nothing.
System: hepatocytes of formalin-fixed liver tissues
Assay: Repeated-dose liver micronucleus (RDLMN) assay, formalin-fixed method
Details: comparison between the two methods, rats treated 14 or 28 days

Cc1ccc([N+](=O)[O-])cc1[N+](=O)[O-]
Frequency of MNHEPs by the formalin-fixed method compared with the collagenase digestion method: Relatively higher frequencies of MNHEPs
